Earlier results as cited in US20070010438A1, “Tumor treatment using beta-sheet peptides and radiotherapy” (priority 2005, published 2007).

Conditions: C3H mice; cited from earlier work

pimonidazole
plasma half-life: 30 min
